Assays:
Format in all cases: biochemical
[1] = target: NAT Noradrenergic Transporter (Rattus norvegicus, UniProt Q9WTR4); test: Measurements of [3H]noradrenaline uptake into rat cortical synaptosomes; details: read-out: NAT (IC50 nM)
[2] = target: 5-HTT Serotonin Transporter (Rattus norvegicus, UniProt P31652); test: Measurements of [3H]-5-HT uptake into rat cortical synaptosomes; details: read-out: 5-HTT (IC50 nM)
DAT Dopamine Transporter = DAT Dopamine Transporter (Rattus norvegicus, UniProt P23977); test: Measurements of [3H]dopamine uptake into rat synaptosomes; details: read-out: DAT (IC50 nM), rat synaptosomes (striatum)

Chains of the proteins cited; added tags and fusions are not shown. Residues count along the entry.
UniProt Q9WTR4, 6-550 limits assumed: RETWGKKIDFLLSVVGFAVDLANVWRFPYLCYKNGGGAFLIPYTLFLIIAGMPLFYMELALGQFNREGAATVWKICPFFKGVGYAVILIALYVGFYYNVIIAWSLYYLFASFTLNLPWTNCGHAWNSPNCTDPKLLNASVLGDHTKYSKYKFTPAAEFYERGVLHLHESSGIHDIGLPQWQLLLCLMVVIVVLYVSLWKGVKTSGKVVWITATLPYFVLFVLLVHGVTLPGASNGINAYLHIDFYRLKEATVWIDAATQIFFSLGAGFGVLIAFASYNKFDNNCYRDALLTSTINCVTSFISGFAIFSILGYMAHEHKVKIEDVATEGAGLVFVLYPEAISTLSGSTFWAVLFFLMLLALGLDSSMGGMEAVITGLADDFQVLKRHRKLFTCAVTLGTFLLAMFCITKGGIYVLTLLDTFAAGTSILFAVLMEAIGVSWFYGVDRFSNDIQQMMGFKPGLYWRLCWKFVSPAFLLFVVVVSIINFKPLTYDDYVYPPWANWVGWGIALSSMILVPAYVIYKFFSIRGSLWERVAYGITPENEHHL
UniProt P31652, whole entry: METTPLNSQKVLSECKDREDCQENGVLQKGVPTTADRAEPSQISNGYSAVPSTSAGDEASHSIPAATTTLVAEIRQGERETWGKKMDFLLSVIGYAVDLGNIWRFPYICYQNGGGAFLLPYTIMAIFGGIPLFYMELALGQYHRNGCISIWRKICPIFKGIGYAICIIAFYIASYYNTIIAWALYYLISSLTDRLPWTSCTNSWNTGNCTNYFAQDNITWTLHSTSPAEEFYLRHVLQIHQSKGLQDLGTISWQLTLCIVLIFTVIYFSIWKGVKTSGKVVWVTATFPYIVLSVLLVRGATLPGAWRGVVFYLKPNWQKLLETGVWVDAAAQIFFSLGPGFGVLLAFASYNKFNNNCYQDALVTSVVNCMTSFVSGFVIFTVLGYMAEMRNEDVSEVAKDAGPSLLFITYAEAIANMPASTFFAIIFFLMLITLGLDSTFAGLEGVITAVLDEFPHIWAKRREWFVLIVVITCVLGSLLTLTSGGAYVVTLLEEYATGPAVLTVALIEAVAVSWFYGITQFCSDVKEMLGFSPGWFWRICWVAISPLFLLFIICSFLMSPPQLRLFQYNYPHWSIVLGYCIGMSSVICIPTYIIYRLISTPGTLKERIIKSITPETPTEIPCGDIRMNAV
UniProt P23977, whole entry: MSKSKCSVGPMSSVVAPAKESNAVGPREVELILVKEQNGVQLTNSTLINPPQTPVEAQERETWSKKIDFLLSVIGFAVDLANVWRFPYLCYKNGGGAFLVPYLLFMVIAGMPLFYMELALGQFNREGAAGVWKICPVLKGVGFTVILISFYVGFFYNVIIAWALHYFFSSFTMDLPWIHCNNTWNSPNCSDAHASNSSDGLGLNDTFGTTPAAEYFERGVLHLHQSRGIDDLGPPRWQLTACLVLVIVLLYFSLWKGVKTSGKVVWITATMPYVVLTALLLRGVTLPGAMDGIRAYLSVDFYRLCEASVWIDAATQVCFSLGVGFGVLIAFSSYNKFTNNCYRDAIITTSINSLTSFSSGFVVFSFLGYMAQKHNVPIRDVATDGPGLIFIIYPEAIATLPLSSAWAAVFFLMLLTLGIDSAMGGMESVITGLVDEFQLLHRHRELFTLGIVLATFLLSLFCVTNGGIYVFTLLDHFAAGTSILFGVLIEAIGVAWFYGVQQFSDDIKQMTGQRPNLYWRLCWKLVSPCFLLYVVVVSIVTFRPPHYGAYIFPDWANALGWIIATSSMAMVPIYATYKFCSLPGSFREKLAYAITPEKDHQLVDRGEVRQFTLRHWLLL

Measured: IC50

CN[C@H]1C[C@@H](c2c[nH]c3c(F)cccc23)c2ccccc21
0.1 to 200 nM: [1] | [2] | DAT Dopamine Transporter

CN[C@@H]1C[C@H](c2c[nH]c3c(F)cccc23)c2ccccc21
0.1 to 200 nM: [1] | [2] | DAT Dopamine Transporter

— patent publication US7618967B2, “Indane compounds” (H. Lundbeck A/S, priority 2006, dated 2009)
